# Laboratory results: patent US4760201A (Exxon Research & Engineering Co., priority 1986, dated 1988)
# Tests used:
# [1] = Experimental: The liquids thus passed to the extraction unit were preheated each to a temperature of 60° C. The reciprocating plate column was provided with a hot water heating jacket maintained at 60° C. […] The liquids thereby accumulated were each analyzed by gas chromatography and nuclear magnetic resonance spectroscopy (NMR) for component identification.
# [2] = Batch extraction of sec-butyl alcohol (SBA) from acid/alcohol feedstream by aliphatic acids; SBA in light phase; assay type: physicochemical; conditions: Table 9, vol:vol 1.0:1, AS 56.7%, ES 0.5
# Text: Thereafter, the thus-formed acid/alcohol […] contacted with the selected amount of a carboxylic acid solvent of this invention, and the results thereby obtained are reported in the associated tables below.
# [3] = Effect of acid strength on SBA removal by neodecanoic acid and regenerated olefin; assay type: physicochemical; conditions: for Light Phase SBA / Regenerated Olefin C4=/SBA: ES 1.0, 1:1 v/v
# [4] = Break time for forming liquid-liquid interface, neo-decanoic acid extract phase / sulfuric acid phase; conditions: 60° C.
# [5] = Solubility of neodecanoic acid in SBOH extracts (heavy layer); conditions: 25° C.
# [6] = Effect of solvent/feed ratio on selectivity of extraction (H2O/SBA in upper layer); conditions: 25° C., AS 56.7%, ES 0.5
# [7] = Partitioning of alcohol into neodecanoic acid from sulfuric acid/alcohol feedstreams (Examples 14-21); conditions: for Light Phase H2O / Light Phase SBOH: AS 60%, 60° C.
# [8] = Comparative runs: partitioning of SBOH and water into neodecanoic acid from aqueous sec-butanol free of sulfuric acid
# [9] = Example 14, ES 0.2, NDA/SBOH 15.6
# [10] = Example 15, ES 0.2, NDA/SBOH 3.9
# [11] = Example 16, ES 0.2, NDA/SBOH 7.9
# [12] = Example 17, ES 0.2, NDA/SBOH 23.2
# [13] = Example 18, ES 0.2, NDA/SBOH 4.7
# [14] = Example 19, ES 1.0, NDA/SBOH 1.3
# [15] = Example 20, ES 1.0, NDA/SBOH 2.6
# [16] = Example 21, ES 1.0, NDA/SBOH 7.9
# [17] = Comparative Example I, 25° C., start SBOH 47.8 wt %
# [18] = Comparative Example II, 25° C., start SBOH 7.3 wt %
# [19] = Comparative Example III, 25° C., start SBOH 63.9 wt %
# [20] = Comparative Example IV, 25° C., start SBOH 13.9 wt %
# [21] = Comparative Example IX, 60° C., start SBOH 28.3 wt %
# [22] = Comparative Example V, 60° C., start SBOH 45.3 wt %
# [23] = Comparative Example VI, 60° C., start SBOH 7.4 wt %
# [24] = Comparative Example VII, 60° C., start SBOH 61.7 wt %
# [25] = Comparative Example VIII, 60° C., start SBOH 13.5 wt %
substance,measurement,setting,value
neodecanoic acid,"Overall Partition Coefficients, Wt. Fract. (concentration in light phase / in heavy phase)",[1],902.5
same,acid strength of the heavy phase after extraction,"[1]; Example 1, feedstream 55-percent acid strength, 60° C.",60%
same,SBA in Light Phase,[2]; 25 °C,4.04 wt. %
same,SBA in Light Phase,[2]; 60 °C,6.44 wt. %
same,capacity for alcohol removal on decreasing sulfuric acid wt %,[3]; 25° C. and 60° C.,greatly increased
same,Light Phase SBA,"[3]; Run 11-1, 25 °C, AS 50%",11.69 wt. %
same,Regenerated Olefin C4=/SBA,"[3]; Run 11-1, 25 °C, AS 50%",0.003 wt:wt
same,Light Phase SBA,"[3]; Run 11-2, 25 °C, AS 60%",4.57 wt. %
same,Regenerated Olefin C4=/SBA,"[3]; Run 11-2, 25 °C, AS 60%",0.013 wt:wt
same,Light Phase SBA,"[3]; Run 11-3, 25 °C, AS 67.5%",1.79 wt. %
same,Regenerated Olefin C4=/SBA,"[3]; Run 11-3, 25 °C, AS 67.5%",0.165 wt:wt
same,Light Phase SBA,"[3]; Run 11-4, 60 °C, AS 50%",13.40 wt. %
same,Regenerated Olefin C4=/SBA,"[3]; Run 11-4, 60 °C, AS 50%",0.060 wt:wt
same,Light Phase SBA,"[3]; Run 11-5, 60 °C, AS 60%",7.11 wt. %
same,Regenerated Olefin C4=/SBA,"[3]; Run 11-5, 60 °C, AS 60%",0.049 wt:wt
same,Light Phase SBA,"[3]; Run 11-6, 60 °C, AS 67.5%",3.55 wt. %
same,Regenerated Olefin C4=/SBA,"[3]; Run 11-6, 60 °C, AS 67.5%",0.161 wt:wt
same,"regenerated olefin in the light phase, of the alcohol present in the feedstream",[3]; acid strength not greater than about 60% A.S.,less than 5 wt.%
same,amount of butylene regenerated in the upper layer on increasing acid strength,[3]; particularly A.S. greater than about 60%,greatly increased amount of butylene regenerated
same,Breaktime,"[4]; Run 1-A, A.S. 55%, E.S. 0.51, feed 60, NDA 40 vol. %",170 s
same,Breaktime,"[4]; Run 1-B, A.S. 55%, E.S. 0.51, feed 40, NDA 60 vol. %",120 s
same,Breaktime,"[4]; Run 2-A, A.S. 55%, E.S. 0.97, feed 60, NDA 40 vol. %",260 s
same,Breaktime,"[4]; Run 2-B, A.S. 55%, E.S. 0.97, feed 40, NDA 60 vol. %",50 s
same,Breaktime,"[4]; Run 3-A, A.S. 55%, E.S. 1.13, feed 60, NDA 40 vol. %",300 s
same,Breaktime,"[4]; Run 3-B, A.S. 55%, E.S. 1.13, feed 40, NDA 60 vol. %",40 s
same,Breaktime,"[4]; Run 4-A, A.S. 60%, E.S. 0.51, feed 60, NDA 40 vol. %",195 s
same,Breaktime,"[4]; Run 4-B, A.S. 60%, E.S. 0.51, feed 40, NDA 60 vol. %",130 s
same,Breaktime,"[4]; Run 5-A, A.S. 60%, E.S. 0.97, feed 60, NDA 40 vol. %",160 s
same,Breaktime,"[4]; Run 5-B, A.S. 60%, E.S. 0.97, feed 40, NDA 60 vol. %",50 s
same,Breaktime,"[4]; Run 6-A, A.S. 60%, E.S. 1.13, feed 60, NDA 40 vol. %",225 s
same,Breaktime,"[4]; Run 6-B, A.S. 60%, E.S. 1.13, feed 40, NDA 60 vol. %",50 s
same,Neodecanoic Acid in Heavy Layer (solubility),"[5]; Sample 1, AS 56.7%, E.S. 0",Not detectable
same,Neodecanoic Acid in Heavy Layer (solubility),"[5]; Sample 2, AS 56.7%, E.S. 0.1",< 10 ppm by weight
same,Neodecanoic Acid in Heavy Layer (solubility),"[5]; Sample 3, AS 56.7%, E.S. 0.2",17 ppm by weight
same,Neodecanoic Acid in Heavy Layer (solubility),"[5]; Sample 4, AS 56.7%, E.S. 0.3",157 ppm by weight
same,Neodecanoic Acid in Heavy Layer (solubility),"[5]; Sample 5, AS 56.7%, E.S. 0.4",364 ppm by weight
same,Neodecanoic Acid in Heavy Layer (solubility),"[5]; Sample 6, AS 56.7%, E.S. 0.5",571 ppm by weight
same,Neodecanoic Acid in Heavy Layer (solubility),"[5]; Sample 7, AS 56.7%, E.S. 1.0",4776 ppm by weight
same,Neodecanoic Acid in Heavy Layer (solubility),"[5]; Sample 8, AS 67.0%, E.S. 0",9 ppm by weight
same,Neodecanoic Acid in Heavy Layer (solubility),"[5]; Sample 9, AS 67.0%, E.S. 0.2",785 ppm by weight
same,Neodecanoic Acid in Heavy Layer (solubility),"[5]; Sample 10, AS 67.0%, E.S. 0.6",1855 ppm by weight
same,Neodecanoic Acid in Heavy Layer (solubility),"[5]; Sample 11, AS 67.0%, E.S. 1.0",9887 ppm by weight
same,solubility of neo-decanoic acid in the heavy phase,[5]; at each acid strength level tested,increases as the ES value of the feed extract increases
same,selectivity of extraction,[6],high selectivity for alcohol extraction
same,wt:wt. ratio H2O/SBA In Upper Layer,[6]; solvent/feed 0.4 (v/v),0.077 wt:wt
same,wt:wt. ratio H2O/SBA In Upper Layer,[6]; solvent/feed 1.0 (v/v),0.030 wt:wt
same,wt:wt. ratio H2O/SBA In Upper Layer,[6]; solvent/feed 1.5 (v/v),0.023 wt:wt
same,wt:wt. ratio H2O/SBA In Upper Layer,[6]; solvent/feed 2.0 (v/v),0.038 wt:wt
same,Light Phase H2O,[7]; [9],.12 wt %
same,Light Phase SBOH,[7]; [9],1.89 wt %
same,Light Phase H2O,[7]; [10],.10 wt %
same,Light Phase SBOH,[7]; [10],2.49 wt %
same,Light Phase H2O,[7]; [11],.10 wt %
same,Light Phase SBOH,[7]; [11],2.22 wt %
same,Light Phase H2O,[7]; [12],.09 wt %
same,Light Phase SBOH,[7]; [12],1.65 wt %
same,Light Phase H2O,[7]; [13],.34 wt %
same,Light Phase SBOH,[7]; [13],6.68 wt %
same,Light Phase H2O,[7]; [14],.66 wt %
same,Light Phase SBOH,[7]; [14],6.87 wt %
same,Light Phase H2O,[7]; [15],.47 wt %
same,Light Phase SBOH,[7]; [15],6.06 wt %
same,Light Phase H2O,[7]; [16],.38 wt %
same,Light Phase SBOH,[7]; [16],5.15 wt %
same,extent of removal of water from the alcohol-containing feeds,[7]; sec-butanol/sulfuric acid feeds versus aqueous sec-butanol alone,surprisingly far less
same,Heavy Phase H2O,[8]; [17],94.56 wt %
same,Heavy Phase SBOH,[8]; [17],5.44 wt %
same,Light Phase H2O,[8]; [17],3.02 wt %
same,Light Phase SBOH,[8]; [17],22.15 wt %
same,Heavy Phase H2O,[8]; [18],99.06 wt %
same,Heavy Phase SBOH,[8]; [18],0.94 wt %
same,Light Phase H2O,[8]; [18],0.63 wt %
same,Light Phase SBOH,[8]; [18],2.07 wt %
same,Heavy Phase H2O,[8]; [19],95.09 wt %
same,Heavy Phase SBOH,[8]; [19],4.91 wt %
same,Light Phase H2O,[8]; [19],2.59 wt %
same,Light Phase SBOH,[8]; [19],19.57 wt %
same,Light Phase H2O,[8]; [20],0.59 wt %
same,Light Phase SBOH,[8]; [20],2.01 wt %
same,Heavy Phase H2O,[8]; [21],98.25 wt %
same,Heavy Phase SBOH,[8]; [21],1.75 wt %
same,Light Phase H2O,[8]; [21],2.74 wt %
same,Light Phase SBOH,[8]; [21],10.53 wt %
same,Heavy Phase H2O,[8]; [22],96.56 wt %
same,Heavy Phase SBOH,[8]; [22],3.44 wt %
same,Light Phase H2O,[8]; [22],2.45 wt %
same,Light Phase SBOH,[8]; [22],20.65 wt %
same,Heavy Phase H2O,[8]; [23],99.51 wt %
same,Heavy Phase SBOH,[8]; [23],0.49 wt %
same,Light Phase H2O,[8]; [23],1.14 wt %
same,Light Phase SBOH,[8]; [23],2.16 wt %
same,Heavy Phase H2O,[8]; [24],96.92 wt %
same,Heavy Phase SBOH,[8]; [24],3.08 wt %
same,Light Phase H2O,[8]; [24],3.33 wt %
same,Light Phase SBOH,[8]; [24],19.72 wt %
same,Heavy Phase H2O,[8]; [25],99.58 wt %
same,Heavy Phase SBOH,[8]; [25],0.42 wt %
same,Light Phase H2O,[8]; [25],0.95 wt %
same,Light Phase SBOH,[8]; [25],1.89 wt %
